Data: ChEMBL document CHEMBL1144877, “A comparison of phosphonothioic acids with phosphonic acids as phosphatase inhibitors” (2003)

Key:
[1] = Inhibitory activity against Serine/Threonine Protein Phosphatase (Lambda protein phosphatase); Precipitation
[2] = Inhibitory activity against Serine/Threonine Protein Phosphatase (PP2C); Precipitation

O=P(O)(O)Cc1ccccc1
NA [1]: Insoluble | NA [2]: Insoluble
